Earlier results on one substance are cited in patent US7737253B2, “Human cancer stem cell culture compositions comprising Erbb2 variants and methods of use thereof” (BresaGen, Inc., priority 2006, dated 2010).

For the data set, the system named is breast cancer that over-expresses Erbb2. As to conditions: cited from earlier work.

Consider Trastuzumab, for which the “severe side effect of treatment” value (a significant number of women) was “treatment-induced cardiotoxicity”. Also, the “proportion of breast cancers in which progression is slowed” value (breast cancer patients) is given as “approximately 30%”. Also, under “large-scale clinical trial, metastatic breast cancer that over-expresses Erbb2”, the “clinical benefit of first-line chemotherapy” value is “increased the clinical benefit”.
